These are literature values, as cited in patent publication US11261215B2, “Somatostatin prodrugs” (YISSUM RESEARCH DEVELOPMENT COMPANY OF THE HEBREW …, priority 2017, dated 2022).

The data set has as its system Caco2. The settings on record: Caco2 studies; cited from earlier work.

For “DPhe-(Cys-Phe-DTrp-Lys-Thr-Cys)-Thr(ol) [Octreotide]”, the mechanism of absorption entry is listed as “via the paracellular pathway”.
